Assay results: patent US9375422B2

Test: Solubility of fentanyl in softeners
Conditions: in words

## CCC(=O)N(c1ccccc1)C1CCN(CCc2ccccc2)CC1
  solubility of fentanyl in liquid paraffin and polybutene: higher in polybutene than in liquid paraffin

Only a part of the results on these compounds is given; other tests are left out.
